Target: Histone deacetylase 1 (Homo sapiens, UniProt Q13547)

Amino acid sequences for entries named in this document (tags omitted).
UniProt Q13547, whole entry: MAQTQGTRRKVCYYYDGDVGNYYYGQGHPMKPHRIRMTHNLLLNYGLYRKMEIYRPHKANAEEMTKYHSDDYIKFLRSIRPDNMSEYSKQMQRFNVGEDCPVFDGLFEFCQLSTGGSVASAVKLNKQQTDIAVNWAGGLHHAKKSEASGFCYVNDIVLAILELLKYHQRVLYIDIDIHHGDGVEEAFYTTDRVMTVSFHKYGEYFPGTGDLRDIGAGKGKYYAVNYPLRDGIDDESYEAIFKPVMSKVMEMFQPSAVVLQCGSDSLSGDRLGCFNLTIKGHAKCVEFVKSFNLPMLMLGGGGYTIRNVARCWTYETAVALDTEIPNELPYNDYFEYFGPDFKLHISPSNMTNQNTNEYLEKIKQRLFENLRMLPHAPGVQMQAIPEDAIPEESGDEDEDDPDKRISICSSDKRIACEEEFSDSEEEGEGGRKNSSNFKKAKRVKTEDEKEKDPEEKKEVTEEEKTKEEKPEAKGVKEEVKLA

Compound | IC50 [µM]
Nc1ccccc1NC(=O)CCCCCN1C(=O)c2cccc3cc(O)cc(c23)C1=O | 1
Nc1ccccc1NC(=O)CCCCCn1cnc2ccccc2c1=O | 12
